From patent US20160038446A1, “METHOD FOR IMPEDING SKIN INFLAMMATORY RESPONSE TO AN ENERGY INJURY” (priority 2014, published 2016)

Tested on: skin inflammatory response to an energy injury
Assay: Effectiveness of the burn treatment as a function of pH and concentration of the lactic acid
Settings: around 2.35 pH to 2.34 pH

**Q.** For C[C@H](O)C(=O)O [L-Lactic Acid, L-lactic acid], which “effectiveness for the treatment” value is on record?
**A.** ideal
